We go through one substance from patent US20060258739A1, “Dihydrobenzofuran derivatives and uses therof” (Wyeth, priority 2005, published 2006).

Amino acid sequences for entries named in this document (tags omitted). Residues count along the entry.
UniProt P28335, 33-458: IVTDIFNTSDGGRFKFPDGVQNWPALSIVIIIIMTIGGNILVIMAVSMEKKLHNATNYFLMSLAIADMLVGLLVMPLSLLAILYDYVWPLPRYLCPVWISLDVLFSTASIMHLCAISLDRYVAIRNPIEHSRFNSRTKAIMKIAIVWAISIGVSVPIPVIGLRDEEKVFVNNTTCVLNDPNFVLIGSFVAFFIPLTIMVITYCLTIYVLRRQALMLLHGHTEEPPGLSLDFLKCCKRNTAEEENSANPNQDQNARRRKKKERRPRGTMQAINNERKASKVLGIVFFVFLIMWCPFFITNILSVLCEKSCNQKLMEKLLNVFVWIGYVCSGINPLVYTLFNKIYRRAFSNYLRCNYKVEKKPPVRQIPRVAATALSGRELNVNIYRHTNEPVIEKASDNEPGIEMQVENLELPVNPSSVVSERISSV

The target in experiment [1] is T1, human 5-hydroxytryptamine-2C (h5-HT2C) receptor (Homo sapiens, UniProt P28335).
T1 construct: expressed in transfected cells; host or cells: CHO (Chinese Hamster Ovary) cells; membrane preparation
Kind of experiment: [125I]DOI radioligand binding to membranes of CHO cells expressing the h5-HT2C receptor. The note with it: displacement of [125I]DOI, CHO cell membranes, room temperature 60 min; read-out: Ki (95% confidence interval).

For the next experiment, the target named is human 5-HT2C receptor (Homo sapiens, UniProt P28335). The settings on record: calcium mobilization, response as % of maximal 5-HT response.

On to “1-(2,5-dimethoxy-4-iodophenyl)isopropylamine [DOI]”, for which, in experiment [1], the Ki came to 6.2 nM. In addition, at human 5-HT2C receptor, the EC50 was found to be 0.5 nM.
